Columns and labels:
[1] = test system: SKBR3; assay: MTT cell proliferation, SKBR3; conditions: tested form: HCl
Method: (§1) We then analyzed the ability of ZU and EB1 and their derivatives to decrease the ErbB2-dependent cell proliferation. We used the ErbB2-overexpressing human breast cancer cell lines SKBR3 and BT474, as well as two non ErbB2-dependent breast cancer cell lines MCF7 and MDA-MB-231 and normal human endothelial cells (HBMEC) as a control, to discard compounds presenting non-specific toxic effects.
(§2) SKBR3, BT474, MCF-7, MDA-MB-231 and HBMEC cells were treated with the compounds as indicated, and cell proliferation was determined each day during 3 days using an MTT assay. Non treated cells were included as a negative control.
A solution of ZU in cis conformation was mixed to a solution of ZU in trans conformation (1:1) to obtain ZU in a 50/50 cis/trans conformation and their respective effects on ErbB2 activation and ErbB2-dependent cell proliferation were analyzed as previously by dot blot analysis using an anti-phosphotyrosine antibody (clone 4G10) and by MTT assays in the ErbB2-overexpressing breast cancer cell line SKBR3, BT474, or HBMEC as a control.

[2] = test system: MCF7; assay: MTT cell proliferation, MCF7; conditions: 5 μM; tested form: HCl
Method: as §1, §2

[3] = test system: SKBR3; assay: Soft agar colony formation, SKBR3; conditions: 5 or 10 μM, 6 weeks; tested form: HCl
Method: A bottom layer of 0.8% agarose in DMEM supplemented with 20% SVF and penicillin/streptomycin was added to 24 well plates before seeding 25.10^3 SKBR3 or BT474 cells/well in a 0.6% agarose top layer. Cells were left untreated or treated with 5 or 10 μM ZU or EB1 or 5 μM AG1478 (a non-specific ErbB2 kinase inhibitor) as a positive control. Treatments were renewed 3 times a week. After 6 weeks, the number of colonies and their size were quantified using image J software. The colony formation is illustrated for each condition. Data are presented as mean±SEM.

[4] = test system: human breast cancer BT474 cells; assay: BT474 orthotopic xenograft in mammary fat pad of mice; conditions: tested form: HCl
Method: 5.10^6 BT474 cells were implanted orthotopically in the mammary fat pad of NOD.Cg-Prkdc scid/J mice, in the presence of estradiol supplement. After 4 weeks, mice were injected with ZU (N=10, 5 mg/kg per day for 5 days a week, followed by 3 mg/kg for 5 days a week during three weeks for N=6) or vehicle (N=10, 10% DMSO in PBS). Mice weight and tumor volume were measured 3 and 2 times a week respectively.
5.10^6 BT474 cells were implanted orthotopically in the mammary fat pad of NOD.Cg-Prkdc scid/J mice, in the presence of estradiol supplement. Nineteen days after implantation, treatment began and mice were injected i.p. with […] ZU (5 mg/kg per day for 3 days a week, during three weeks for N=9), 4 mg/kg ZU (5 days a week during three weeks, N=8) or vehicle (N=9, 10% DMSO in PBS). Mice weight and tumor volume were measured 3 and 2 times a week respectively.
5.10^6 BT474 cells were implanted orthotopically in the mammary fat pad of NOD.Cg-Prkdc scid/J mice, in the presence of estradiol supplement. After 4 weeks, mice were injected with EB1 3 mg/kg (N=8), 5 mg/kg (N=6) or vehicle (N=8, 10% DMSO in PBS) twice a day for 5 days a week (2×D), during 2 weeks then once per day (1×D) during 3 days. Mice weight and tumor volume were measured 3 and 2 times a week respectively.

[5] = target: WT ErbB2 (Homo sapiens, UniProt P04626); assay: Western blot pY1248, WT ErbB2 in transfected HBMECs; conditions: 0, 5, 10 or 20 μM, tested form: HCl
Method: (§3) HBMECs cells were transfected with plasmids encoding WT, ΔEBM (a form of ErbB2 carrying mutations in the juxtamembrane domain and unable to bind to the Ezrin FERM domain), V659E or p95 ErbB2 and treated with 0, 5, 10 or 20 μM ZU for 24 h. ErbB2 activation was then analyzed by western blot analysis using a phospho-ErbB2-specific antibody (pY1248) and a tubulin antibody as a loading control. Histograms show optical density quantification.
HBMECs cells were transfected with plasmids encoding WT, V777L or V842I and treated with 0, 5, 10 or 20 μM ZU or EB1 for 48 h. ErbB2 activation was then analyzed by western blot analysis using a phospho-ErbB2-specific antibody (pY1248) and a total ErbB2 antibody. Histograms show optical density quantification.

[6] = test system: p95 ErbB2; assay: Western blot pY1248, p95 ErbB2 in transfected HBMECs; conditions: 0, 5, 10 or 20 μM, 24 h; tested form: HCl
Method: as §3

[7] = test system: ΔEBM ErbB2; assay: Western blot pY1248, ΔEBM ErbB2 in transfected HBMECs; conditions: 0, 5, 10 or 20 μM, 24 h; tested form: HCl
Method: as §3

[8] = test system: EGFR/ErBB2 or ErbB3/ErbB2 heterodimers-dependent signalling pathways; assay: Ligand-dependent ErbB2 activation (EGF or HRG) in HBMECs, western blot; conditions: pre-treatment 1 h or 24 h; tested form: HCl
Method: In physiological conditions, ErbB2 activation occurs in heterodimer with the other ErbB family members, such as the EGFR in response to EGF stimulation or ErbB3 in response to heregulin (HRG) stimulation. We therefore addressed whether ZU, EB1 and their derivatives also affected the ligand-dependent physiological ErbB2 activation.
16 h-starved HBMECs cells were pre-treated or not for 1 h or 24 h with ZU, […] and their derivatives or AG1478 before EGF (50 ng/mL) or HRG1β (100 ng/mL) stimulation for 5 minutes. The activation of EGFR/ErBB2 or ErbB3/ErbB2 heterodimers-dependent signalling pathways was then analysed by western blot experiments using pAkt, Akt, pERK, ERK or 4G10 antibodies.

[9] = test system: N87; assay: MTT cell proliferation, N87; conditions: 3, 5 and 7 μM, day 3; tested form: HCl
Method: The ErbB2-overexpressing gastric cancer cell line N87 and MDAMB-231, a non ErbB2-overexpressing breast cancer cell line were treated with 3, 5 or 7 μM of ZU and cell proliferation was determined each day during 3 days using an MTT assay. Non treated cells were included as a negative control.

[10] = test system: WT ErbB2-transfected cells; assay: MTT cell proliferation, WT ErbB2-transfected HBMEC; conditions: 10 μM, day 3; tested form: HCl
Method: The WT, V777L or V842I ErbB2-transfected cells were treated with 5 or 10 μM of ZU and cell proliferation was determined each day during 3 days using an MTT assay. Non transfected cells were included as a negative control.
The WT, V777L or V842I ErbB2-transfected cells were treated with 5 or 10 μM of EB1 and cell proliferation was determined each day during 3 days using an MTT assay. Non transfected cells were included as a negative control.

Structure (SMILES): OCCN1CCN(CC/C=C2/c3ccccc3Sc3ccc(Cl)cc32)CC1
- reduction of SKBR3 proliferation ([1]; 5 μM, day 2 and 3): 50%
- Cell proliferation at d 3 SKBR3 Max inhibition, % ([1]; day 3): 46.2%
- EC50 ([1]; read-out: Cell proliferation at d 3 SKBR3 EC50, day 3): 14.1 µM
- IC50 ([1]; read-out: IC50 SKBR3 proliferation): 14 µM
- effect on MCF7 proliferation (in words) [2]: without any effect
- anchorage-independent growth of SKBR3 (in words) [3]: inhibited the anchorage-independent growth
- tolerability in mice (in words) ([4]; 5 mg/kg 3 days a week or 4 mg/kg 5 days a week): well tolerated
- tumor progression in vivo (in words) ([4]; 5 mg/kg per day 5 days a week, followed by 3 mg/kg 5 days a week during three weeks): completely blocked tumor progression
- mice dizzy or sleepy for long, lost weight and finally died ([4]; 5 mg/kg, after several injections): 3 mice out of 10
- tumor progression in vivo (in words) ([4]; i.p., 5 mg/kg per day 3 days a week, or 4 mg/kg 5 days a week, three weeks): dramatically reduced tumor progression
- tolerability in mice (in words) ([4]; switched at 3 mg/kg): well supported
- activation of WT ErbB2 (in words) ([5]; 24 h): decreased the activation
- ErbB2 WT activation (in words) ([5]; 48 h): potently decrease
- activation of p95 ErbB2 (in words) [6]: decreased the activation
- activation of ΔEBM ErbB2 mutant (in words) [7]: without any effect
- ligand-dependent ErbB2 activation induced by EGF or HRG stimulation (in words) [8]: did not block
- decrease of the proliferation of N87 [9]: 35%
- decrease of the proliferation of WT transfected HBMEC [10]: 50%

Source: US10766873B2, “Zuclopenthixol hydrochloride derivatives and Ebselen derivatives as ErbB2 inhibitors” (Centre National de la Recherche Scientifique (CNRS), priority 2016, dated 2020)
